These are literature values, as cited in patent US20170173134A1 (priority 2011, published 2017).

For the series the following is noted: in vivo; cited from earlier work.

Consider Bacillus Calmette-Guérin [BCG], for which the “Cystitis, (%) patients affected” value is >50%; the “Epididymitis, (%) patients affected” value is listed as <2%; the “Fever (high grade), (%) patients affected” value is 3%; the “Fever (low grade), (%) patients affected” value is reported as 25%. Further, the “Generalized infection, (%) patients affected” value was “Rarely”; the “Prostatitis, (%) patients affected” value is on record as <5%; the “Septicemia, (%) patients affected” value is <0.5- %; the “patients affected by systemic complications such as fever” value was “around 15%”. Besides, the “patients who completed the entire period of intended treatment (SWOG 8507)” value is listed as 16% and the “withdrawal from treatment because of systemic complications” value is listed as “around 5%”.
